According to PubChem BioAssay (EPA / NIEHS):
The entries are a selection whose mix differs from that of the whole data set. Inconclusive results are not listed. Calls of active or inactive are those of the source. The calls were made as follows, unless noted: active = hit-call score of the fitted dose curve at least 0.9, where 1 is the maximum; inactive = score below 0.9.

By UniProt entry, the sequences of proteins in these tests, tags left out.
UniProt Q16665, whole entry: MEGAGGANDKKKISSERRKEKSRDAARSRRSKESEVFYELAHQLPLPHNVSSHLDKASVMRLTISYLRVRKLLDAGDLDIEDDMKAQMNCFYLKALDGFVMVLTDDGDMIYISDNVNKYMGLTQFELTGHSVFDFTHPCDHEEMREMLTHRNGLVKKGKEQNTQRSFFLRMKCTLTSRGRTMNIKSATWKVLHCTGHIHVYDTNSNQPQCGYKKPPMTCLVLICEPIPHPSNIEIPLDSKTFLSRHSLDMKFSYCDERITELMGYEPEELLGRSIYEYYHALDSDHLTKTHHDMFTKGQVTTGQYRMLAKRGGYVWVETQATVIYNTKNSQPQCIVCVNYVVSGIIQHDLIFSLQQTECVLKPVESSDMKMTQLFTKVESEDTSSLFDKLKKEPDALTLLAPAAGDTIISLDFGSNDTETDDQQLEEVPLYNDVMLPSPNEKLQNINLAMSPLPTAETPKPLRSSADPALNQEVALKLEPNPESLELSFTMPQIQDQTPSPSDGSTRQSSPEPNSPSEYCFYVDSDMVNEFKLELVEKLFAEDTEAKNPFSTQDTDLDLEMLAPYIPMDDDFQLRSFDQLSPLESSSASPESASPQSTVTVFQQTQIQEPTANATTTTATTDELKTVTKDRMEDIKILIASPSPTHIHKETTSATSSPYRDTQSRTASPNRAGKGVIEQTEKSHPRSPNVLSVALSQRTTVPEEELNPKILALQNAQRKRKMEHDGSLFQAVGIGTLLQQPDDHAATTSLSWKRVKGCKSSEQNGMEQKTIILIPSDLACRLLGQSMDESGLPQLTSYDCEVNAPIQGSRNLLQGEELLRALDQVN
UniProt P37231, whole entry: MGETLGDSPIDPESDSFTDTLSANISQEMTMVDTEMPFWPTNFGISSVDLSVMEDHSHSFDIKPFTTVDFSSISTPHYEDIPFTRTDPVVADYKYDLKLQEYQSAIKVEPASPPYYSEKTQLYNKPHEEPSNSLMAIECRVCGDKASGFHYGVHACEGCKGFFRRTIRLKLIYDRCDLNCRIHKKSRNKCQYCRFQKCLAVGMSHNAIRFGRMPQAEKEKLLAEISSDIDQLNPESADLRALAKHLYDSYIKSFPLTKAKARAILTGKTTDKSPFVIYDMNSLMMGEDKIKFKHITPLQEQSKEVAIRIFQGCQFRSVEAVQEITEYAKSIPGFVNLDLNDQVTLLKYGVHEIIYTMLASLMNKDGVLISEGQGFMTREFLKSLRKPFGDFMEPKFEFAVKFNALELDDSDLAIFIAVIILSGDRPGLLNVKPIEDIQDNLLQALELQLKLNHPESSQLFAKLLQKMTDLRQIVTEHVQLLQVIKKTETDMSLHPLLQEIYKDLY

Experiments:
[1] = APR_HepG2_CellCycleArrest_24hr: Apredica 24-hour HepG2 Assay for Cell Cycle Arrest (AID 2282905); settings: imaging, actives raise or lower the signal;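 also: cell cycle arrest scored as ratio of 2N to 4N nuclear DNA content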
How it was run: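 Readout: Hoechst 33342 nuclear DNA content by high-content fluorescent imaging, six images/well, 20x. Human HepG2 liver cells, 24 hr compound exposure, 0.39–200 uM, final DMSO 0.5% v/v. Gain or loss fitted relative to DMSO baseline.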

[2] = APR_HepG2_CellCycleArrest_72hr: Apredica 72-hour HepG2 Assay for Cell Cycle Arrest (AID 2282914); settings: high-content imaging, actives raise or lower the signal
How it was run: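 HepG2 cells exposed 72 h in duplicate to 0.39–200 uM compound, 0.5% DMSO final. Formaldehyde-fixed, Hoechst 33342-stained nuclei imaged at 20x, six fields per well; DNA content per valid cell quantified by cell-cycle image analysis, bidirectional fit versus DMSO.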

[3] = biological target: Hypoxia-inducible factor 1-alpha (Homo sapiens) (UniProt Q16665); assay: ATG_HIF1a_CIS: Attagene CIS-FACTORIAL HepG2 Assay for human Hypoxia Inducible Factor 1 (HIF1A) (AID 2282951); settings: HepG2 Attagene cis-factorial HIF1a reporter transcription; actives raise or lower the signal
How it was run: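 Measures endogenous transcription-factor activity through cis-regulated reporter mRNA in HepG2. Cells dosed 24 h; transcripts quantified by RT-PCR with 6-FAM-labelled products separated by capillary electrophoresis; DMSO serves as negative control.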

[4] = ATG_PPRE_CIS: Attagene CIS-FACTORIAL HepG2 Assay for human Peroxisome Proliferator-activated Response Element (PPRE) (AID 2282958); settings: HepG2 PPRE cis-element reporter, Attagene transcription factor profiling; actives raise or lower the signal
How it was run: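 Cells are first transfected transiently with the multiplexed reporter library, then dosed for 24 h. Total RNA is reverse-transcribed, amplified, fluorescently end-labeled and HpaI-cut before capillary electrophoresis; activity is fitted bidirectionally against DMSO controls.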

[5] = ATG_NRF2_ARE_CIS: Attagene CIS-FACTORIAL HepG2 Assay for human Nuclear Factor Erythroid 2 Related Factor 2 (NFR2) response to Antioxidant Response Elements (ARE) (AID 2282992); settings: HepG2 Attagene ARE/NRF2 reporter, transcription factor activity; actives raise or lower the signal;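 also: reporter mRNA level measured by RT-PCR and capillary electrophoresis fluorescence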
How it was run: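 Endogenous transcription factor activity in human liver HepG2 cells is tracked via a cis-element-driven reporter within a multiplexed set. mRNA induction is read by RT-PCR and capillary electrophoresis after 24 h, with DMSO as baseline.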

[6] = BSK_4H_Eotaxin3: BioMAP Diversity Plus: 4H Assay for Eotaxin 3 Biomarker Activity (AID 2283000); settings: actives raise or lower the signal; primary human endothelial cells (HUVEC)
How it was run: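 Eotaxin-3 (CCL26) levels were measured by ELISA in HUVEC primary cultures 24 h post-dosing. Gain or loss of signal was fitted in both directions, with DMSO serving as baseline and negative control.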

[7] = biological target: Peroxisome proliferator-activated receptor gamma (Homo sapiens) (UniProt P37231); assay: ATG_PPARg_TRANS: Attagene TRANS-FACTORIAL HepG2 Assay for human Peroxisome Proliferator-activated Receptor-gamma (PPARg) (AID 2283007; active = hit-call score of the fitted dose curve at least 0.9, where 1 is the maximum)
How it was run: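 A TRANS-format multiplexed reporter assay measures activity of an exogenous chimeric NR-Gal4 protein in HepG2 cells. After 24 h of chemical exposure, reporter transcripts are amplified, fluorescently labelled and sized by capillary electrophoresis, with gain of signal scored against DMSO.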

[8] = read-out: Interferon-gamma inducible Protein 10 (IP10), CXCL10 (gene 3627); assay: BSK_BE3C_IP10: BioMAP Diversity Plus: BE3C Assay for Interferon-gamma inducible Protein 10 (IP10) Biomarker Activity (AID 2283034); settings: actives raise or lower the signal; primary human bronchial epithelial cells
How it was run: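 ELISA readout of IP-10 in BE3C system: primary human bronchial epithelial cells, 24 h post-dosing; bidirectional curve fit vs DMSO baseline.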

[9] = read-out: CD38, CD38 (gene 952); assay: BSK_SAg_CD38: BioMAP Diversity Plus: SAg Assay for CD38 Biomarker Activity (AID 2283087); settings: actives raise or lower the signal; primary human HUVEC with PBMC
How it was run: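 Measures CD38 on a human endothelial/PBMC co-culture driven by SEB and TSST-1, 24 h after compound exposure, using ELISA with fluorescence detection; DMSO defines baseline for bidirectional curve fitting.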

[10] = BSK_SAg_Proliferation: Cell Proliferation Assessment in the BioMAP Diversity Plus: SAg Assay (AID 2283095); settings: primary human HUVEC with PBMC;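 also: relative cell number as total protein by SRB absorbance in sub-confluent culture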
How it was run: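 HUVEC/PBMC co-culture, 96-well. TCA-fixed (10%), 0.1% SRB stain, A560 at 96 h. Protein content used as viability readout; bidirectional fitting vs DMSO control.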

[11] = read-out: Forkhead box O1 (FOXO1), FOXO1 (gene 2308); assay: LTEA_HepaRG_FOXO1: Life Technologies and Expression Analysis (LTEA) Assay for Forkhead box O1 (FOXO1) using HepaRG (AID 2283456); settings: actives raise or lower the signal; mRNA level, 48 h
How it was run: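 Using one lot of HepaRG hepatic cells kept in 0.5% DMSO, the team applied test chemicals in duplicate, half-log dilutions from 100 uM, for 48 h. Expression, normalised to ACTB/GAPDH/POLR2A, was compared with vehicle in either direction.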

[12] = read-out: growth arrest and DNA damage 45 (GADD45B), GADD45B (gene 4616); assay: LTEA_HepaRG_GADD45B: Life Technologies and Expression Analysis (LTEA) Assay for growth arrest and DNA damage 45 (GADD45B) using HepaRG (AID 2283461); settings: actives raise or lower the signal; mRNA level, 48 h
How it was run: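 Differentiated human HepaRG cells in serum-free induction medium exposed 48 h in duplicate to eight concentrations, top 100 uM, half-log steps, 0.5% DMSO. GADD45B mRNA by TaqMan qRT-PCR, normalized to ACTB, GAPDH, POLR2A; bidirectional fit versus DMSO.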

[13] = read-out: ABC Transporter (ABCB11), ABCB11 (gene 8647); assay: LTEA_HepaRG_ABCB11: Life Technologies and Expression Analysis (LTEA) Assay for ABC Transporter (ABCB11) using HepaRG (AID 2283463); settings: actives raise or lower the signal; mRNA level, 48 h
How it was run: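 Using HepaRG cultures held in 0.5% DMSO, chemicals were tested at half-log dilutions from 100 uM for 48 h. Induction or suppression of ABCB11 mRNA, normalized to ACTB, GAPDH and POLR2A, was fitted bidirectionally against vehicle.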

[14] = read-out: adenosine kinase (ADK) gene, ADK (gene 132); assay: LTEA_HepaRG_ADK: Life Technologies and Expression Analysis (LTEA) Assay for adenosine kinase (ADK) gene using HepaRG (AID 2283471); settings: actives raise or lower the signal; mRNA level, 48 h
How it was run: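 Differentiated HepaRG cells dosed 48 h in serum-free induction medium, 0.5% DMSO vehicle, eight half-log concentrations from 100 uM, in duplicate. ADK mRNA by TaqMan qRT-PCR normalised to ACTB, GAPDH, POLR2A; bidirectional fit versus DMSO.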

[15] = read-out: BCL2L11 (gene 10018); assay: LTEA_HepaRG_BCL2L11: Life Technologies and Expression Analysis (LTEA) Assay for Bcl-2 (BCL2L11) gene using HepaRG (AID 2283473); settings: actives raise or lower the signal; mRNA level, 48 h
How it was run: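 Differentiated human HepaRG cells were exposed 48 h in serum-free induction medium to eight half-log concentrations up to 100 uM in 0.5% DMSO, in duplicate. BCL2L11 mRNA was quantified by TaqMan qRT-PCR, normalized to ACTB, GAPDH and POLR2A; induction or repression fitted versus DMSO.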

Measured: AC50

Cc1cc([N+](=O)[O-])cc([N+](=O)[O-])c1O
active: [1] 73.7 µM | [2] 52.5 µM | [3] 26.1 µM | [4] 105 µM | [5] 62.3 µM | [6] 31.2 µM | [7] 23.7 µM | [8] 10.7 µM | [9] 14.7 µM | [10] 29.5 µM | [11] 32.2 µM | [12] 12.2 µM | [13] 4.43 µM | [14] 12.4 µM | [15] 12.2 µM
